Molecular target: Myosin-VI (myo6), native full-length construct, heavy chain co-expressed with human calmodulin (human) (UniProt P0DP23)

For “Alexa488-phalloidin labelled F-actin (from UniProt P68135 1-377) (natural protein)”, the gliding velocity of Alexa 488-labelled actin filaments translocated by myo6 bound to a DOPC:DOPE-Cy5 bilayer (motility assay, TIRF microscopy, 2 mM ATP, 22 °C, n = 153 filaments) was 365 nm/s.

Source: article PMC6656732
